The term CL/F denotes clearance divided by bioavailability, as obtained after extravascular dosing.

The nature of the data set: Plasma pharmacokinetics of entinostat. Format: in vivo, human.

On to `Nc1ccccc1NC(=O)c1ccc(CNC(=O)OCc2cccnc2)cc1` [Entinostat], for which the CL/F is, setting by setting: (Day 1, 3 mg oral, N=3*, mean ± SD) 5.42 ± 1.26 L/h; (Day 1, 5 mg oral, N=12, mean ± SD) 5.08 ± 1.31 L/h; (Day 1, 7 mg oral, N=3, mean ± SD) 5.15 ± 0.76 L/h; (Day 22, 3 mg/week oral, N=3*, mean ± SD) 4.94 ± 0.36 L/h; (Day 22, 5 mg/week oral, N=12, mean ± SD) 4.00 ± 0.85 L/h; (Day 22, 7 mg/week oral, N=3, mean ± SD) 4.45 ± 1.14 L/h.

These data come from article PMC8484140 (Targeted Oncology, 2021).
